Values of other authors in US7629368B2, “Nitroderivatives as drugs for diseases having an inflammatory basis” (Nicox S.A., priority 2000, dated 2009).

Key:
chronic hepatitis C = settings: patients; cited from earlier work
chronic hepatitis B = settings: cited from earlier work

## interferon α-2b: compound used for the treatment of chronic hepatitis B and C
Chronic hepatitis C
  recovery of the cases affected by chronic hepatitis C: 20-25%
Chronic hepatitis B; patients with chronic hepatitis B or C, interruption of the treatment
  recidivism after interruption of the treatment: 50-80%
Chronic hepatitis B; patients
  cases of hepatitis B that are satisfactory: 10%
  recovery of the cases affected by chronic hepatitis B: 30-40%
